Laboratory results published in ChEMBL document CHEMBL1134215, “Influence of chain length and N-alkylation on the selective serotonin receptor ligand 9-(aminomethyl)-9,10-dihydroanthracene” (Bioorg Med Chem Lett, 2001).

Target: T1, 5-hydroxytryptamine receptor 2C (Mus musculus, UniProt P34968)
T1 sequence (P34968 whole entry): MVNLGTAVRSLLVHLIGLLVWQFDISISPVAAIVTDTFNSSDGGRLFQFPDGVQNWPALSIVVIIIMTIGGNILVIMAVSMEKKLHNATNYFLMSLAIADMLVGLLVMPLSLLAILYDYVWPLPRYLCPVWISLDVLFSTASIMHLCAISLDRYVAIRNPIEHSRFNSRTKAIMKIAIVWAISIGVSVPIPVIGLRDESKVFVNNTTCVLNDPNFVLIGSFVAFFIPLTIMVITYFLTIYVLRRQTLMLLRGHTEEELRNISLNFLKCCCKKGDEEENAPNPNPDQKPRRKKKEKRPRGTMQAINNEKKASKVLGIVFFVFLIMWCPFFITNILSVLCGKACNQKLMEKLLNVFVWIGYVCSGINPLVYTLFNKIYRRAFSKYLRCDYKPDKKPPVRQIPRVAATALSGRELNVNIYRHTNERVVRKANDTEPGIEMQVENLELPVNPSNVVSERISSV
Assay: Binding affinity to 5-hydroxytryptamine 2C receptor using [3H]Mesulergine as radioligand in stably transfected NIH3T3 cells
Format: cell-based

- Ki: 0.16 µM
Compound: CN(C)CCCN1c2ccccc2CCc2ccccc21 [IMIPRAMINE]
